Read-outs that look alike come from different tables or passages of the source.
Columns and labels:
histidine kinase HK853 [1] = target: T1, histidine kinase HK853 (Thermotoga maritima, UniProt Q9WZV7); assay: biochemical
T1 sequence (Q9WZV7 232-489): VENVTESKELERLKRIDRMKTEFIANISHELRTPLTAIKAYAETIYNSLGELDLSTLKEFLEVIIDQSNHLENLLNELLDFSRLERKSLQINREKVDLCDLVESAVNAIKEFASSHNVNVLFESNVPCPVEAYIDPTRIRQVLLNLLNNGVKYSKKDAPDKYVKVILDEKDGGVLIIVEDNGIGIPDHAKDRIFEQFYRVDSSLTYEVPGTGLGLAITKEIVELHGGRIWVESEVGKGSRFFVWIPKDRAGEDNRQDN

histidine kinase HK853 [2] = target: T1, histidine kinase HK853; details: non-native bases or nucleosides, Comparative Example 1

SMILES | IC50 (histidine kinase HK853 [1]) [µM] | IC50 (histidine kinase HK853 [2]) [µM]
OCC1OC(n2cnc3c(NCCc4ccccc4)ncnc32)C(O)C1O (centres unmarked) [Compound C20] | 1200 | –
O=c1[nH]cnc2nc[nH]c12 [Hypoxanthine, reference compound] | – | 1200

— patent US11452714B2, “Antibacterial agents including histidine kinase inhibitors” (Regents of the University of Minnesota, priority 2017, dated 2022)
